# Active and inactive are the calls of the source. The calls are words filed in the database; no cut-off is given here.
# Biological target: T1, Protein ENL (Homo sapiens) (UniProt Q03111)
# T1 sequence (whole entry): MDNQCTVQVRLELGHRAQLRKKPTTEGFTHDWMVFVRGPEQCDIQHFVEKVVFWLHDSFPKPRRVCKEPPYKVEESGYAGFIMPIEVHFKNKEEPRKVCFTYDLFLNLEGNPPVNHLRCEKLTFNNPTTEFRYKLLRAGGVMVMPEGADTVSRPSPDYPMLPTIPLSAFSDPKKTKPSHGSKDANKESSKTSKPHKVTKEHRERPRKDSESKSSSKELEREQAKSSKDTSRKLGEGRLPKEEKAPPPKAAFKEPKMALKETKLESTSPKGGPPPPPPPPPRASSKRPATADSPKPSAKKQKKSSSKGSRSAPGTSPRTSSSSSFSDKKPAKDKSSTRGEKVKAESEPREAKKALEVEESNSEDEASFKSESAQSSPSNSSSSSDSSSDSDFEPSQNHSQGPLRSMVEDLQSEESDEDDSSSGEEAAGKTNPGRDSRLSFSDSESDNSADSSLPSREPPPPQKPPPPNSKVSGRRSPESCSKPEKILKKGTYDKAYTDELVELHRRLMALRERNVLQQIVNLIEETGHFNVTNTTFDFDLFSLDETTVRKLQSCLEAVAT
# Assay: Binding affinity to recombinant C-terminal His6-tagged ENL YEATS domain (1 to 148 residues) (unknown origin) expressed in expressed Escherichia coli Rosetta assessed as change in melting temperature by thermal shift assay
row,SMILES,Activity
1,Cc1ccc(C(=O)Nc2cccc3cccnc23)cc1C,inactive
2,CC(=O)Nc1ncnc2[nH]cnc12,inactive
3,O=C(Nc1ccc2nccnc2c1)c1ccc(F)cc1,inactive
4,O=C(CCl)Nc1ccccc1,inactive
5,O=C(Nc1ccc(Cl)c(Cl)c1)Nc1cccc2cccnc12,inactive
6,O=C(Cn1ccc2ccccc21)Nc1ccc2[nH]ccc2c1,inactive
7,O=C(c1cnccn1)N1CCSCC1,inactive
8,O=C(CCl)Nc1cccnc1,inactive
9,Cc1ccc(CC(=O)Nc2cccnc2)cc1,inactive
10,O=C(Cc1cccc(F)c1)NC1=NCCS1,inactive
11,CC(=O)Nc1ccc2c(c1)nc(C)n2C,inactive
12,CC(=O)Nc1ccncc1,inactive
13,Cc1ccc(C(=O)Nc2cccnc2)cc1,inactive
14,N#CCC(=O)Nc1cccnc1,inactive
15,CC(=O)Nc1ccc2cc[nH]c2c1,inactive
16,O=C(NCc1cccc(Cl)c1)c1ccc2c(c1)ncn2CCN1CCCC1,inactive
17,Cn1c(CN2CCCCC2)nc2cc(NC(=O)c3ccc(Cl)cc3)ccc21,inactive
18,CC(C)(C)c1ccc(C(=O)Nc2ccc(CCC(=O)O)cc2)cc1,inactive
19,O=C(O)Cc1ccc(NC(=O)c2cccc(-c3cc(Cl)cc(Cl)c3)c2)cc1,inactive
